Results published in patent publication US20240254224A1 (UCB, published 2024).
Changes are numbered by the printed parent chain. Values joined by “and” are separate entries in the source; they are usually repeats but may differ in a detail not shown here. Equal values may be shown once.

Sequences of proteins named here, by UniProt entry; tags and fusion partners are left off. Residues count along the entry.
UniProt Q9NP99, 21-234: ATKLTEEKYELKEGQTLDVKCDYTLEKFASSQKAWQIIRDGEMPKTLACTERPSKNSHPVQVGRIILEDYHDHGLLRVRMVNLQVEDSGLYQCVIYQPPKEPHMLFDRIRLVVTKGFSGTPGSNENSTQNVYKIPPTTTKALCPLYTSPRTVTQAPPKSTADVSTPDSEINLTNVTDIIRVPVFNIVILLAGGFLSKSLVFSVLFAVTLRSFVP
UniProt Q9NP99, 21-205 limits assumed: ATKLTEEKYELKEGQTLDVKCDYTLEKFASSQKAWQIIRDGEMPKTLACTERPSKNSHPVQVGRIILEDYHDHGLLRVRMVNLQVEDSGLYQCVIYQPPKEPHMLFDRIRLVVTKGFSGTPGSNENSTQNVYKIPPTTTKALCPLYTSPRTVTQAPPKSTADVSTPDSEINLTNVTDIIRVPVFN

B1: 12172 gL6gH6 hIgG4P (antibody)
heavy: not shown
light: DIVLTQSPSFLSASVGDRVTITCQASQNIGSDLAWYQQKPGKAPKLLIYKAATLASGVPSRFSGSGSGTEFTLTISSLQPEDFATYYCQQYYYGSAGADTDTFGGGTKVEIKRTVAAPSVFIFPPSDEQLKSGTASVVCLLNNFYPREAKVQWKVDNALQSGNSQESVTEQDSKDSTYSLSSTLTLSKADYEKHKVYACEVTHQGLSSPVTKSFNRGEC
notes: Humanised IgG4P, human kappa
B2: 12172 gL6gH6 hIgG1 LALA (antibody)
heavy: not shown
light: B1 light
B3: 12172 gL2gH11 hIgG1 LALA (antibody)
heavy: not shown
light: B1 light with V3Q
B4: 12172gL9gH48 (antibody, human IgG4 S228P, kappa, V domains shown)
VH: EVQLVESGGGLVQPGGSLRLSCAASGFSLSSYAMTWVRQAPGKGLEWIGIIYAGGSPSYASWAKGRFTISKDNSQNTLYLQMNSLRAEDTAVYYCARGTGDTVYTYFNIWGQGTLVTVSS
VL: DIQLTQSPSFLSASVGDSVTITCQASQNIGSDLAWYQQKPGKAPKLLIYKAATLASGVPSRFSGSGSGTEFTLTISSLQPEDFATYYCQQYYYGSAGADTDTFGGGTKVEIKR
B5: 12172gL9gH11 (antibody, human IgG4 S228P, kappa)
heavy: not shown
light: B1 light with V3Q, R18S
B6: 12172gL9gH49 (antibody, human IgG4 S228P, kappa, V domains shown)
VH: B4 VH with Q75E
VL: B4 VL
B7: 12172gL2gH2 (antibody, human IgG4 S228P, kappa, V domains shown)
VH: B4 VH with I48V, N73S, Q75K, L78V
VL: B4 VL with S18R
B8: 12172gL2gH12 (antibody, human IgG4 S228P, kappa, V domains shown)
VH: B4 VH with K71R, Q75K
VL: B4 VL with S18R
B9: 12172gL2gH6 (antibody, human IgG4 S228P, kappa)
heavy: not shown
light: B1 light with V3Q
B10: 12172gL2gH4 (antibody, human IgG4 S228P, kappa)
heavy: not shown
light: B1 light with V3Q
B11: 12172gL1gH1 (antibody, human IgG4 S228P, kappa)
heavy: not shown
light: B1 light with D1A, I2V
B12: 12172gL2gH9 (antibody, human IgG4 S228P, kappa, V domains shown)
VH: B4 VH with K71R, Q75K, L78V
VL: B4 VL with S18R
B13: 12172gL2gH10 (antibody, human IgG4 S228P, kappa, V domains shown)
VH: B4 VH with K71R, N73S, Q75K
VL: B4 VL with S18R
B14: 12172gL6gH4 (antibody, human IgG4 S228P, kappa)
heavy: not shown
light: B1 light
B15: 12172gL6gH11 (antibody, human IgG4 S228P, kappa)
heavy: not shown
light: B1 light
B16: 12172gL2gH1 (antibody, human IgG4 S228P, kappa)
heavy: not shown
light: B1 light with V3Q
B17: 12172gL2gH8 (antibody, human IgG4 S228P, kappa, V domains shown)
VH: B4 VH with N73S, Q75K, L78V
VL: B4 VL with S18R
B18: 12172gL9gH26 (antibody, human IgG4 S228P, kappa)
heavy: not shown
light: B1 light with V3Q, R18S
B19: 12172gL11gH26 (antibody, human IgG4 S228P, kappa, V domains shown)
VH: B4 VH with Q75S
VL: B4 VL with S18R, K50S
B20: 12172gL10gH26 (antibody, human IgG4 S228P, kappa, V domains shown)
VH: B4 VH with Q75S
VL: B4 VL with S18R, K42Q
notes: Recombinant IgG4P charge mutant
B21: 12172gL2gH26 (antibody, human IgG4 S228P, kappa)
heavy: not shown
light: B1 light with V3Q

biological target: T1, human TREM1 on cells (human, UniProt Q9NP99 21-234); assay: cell-based or functional assay

| Geo IC50, IL-1β release from PGN-BS/PGLYRP1-activated primary human monocytes (n = 2) [nM] | Geo IC50, IL-6 release from PGN-BS/PGLYRP1-activated primary human monocytes (n = 4) [nM] | Geo IC50, TNF-α release from PGN-BS/PGLYRP1-activated primary human monocytes (n = 4) [nM] | Binder |
| --- | --- | --- | --- |
| 0.028 | 0.036 | 0.026 | B1 |
| 0.025 | 0.178 | 0.054 | B2 |
| 0.032 | 0.112 | 0.043 | B3 |

biological target: T1, human TREM1 on cells; assay: cell-based or functional assay; remark: another data set of the same source

| percentage inhibition of CCL-3 release, activated primary human monocytes, antibody 1 nM [%] | percentage inhibition of CCL-20 release, activated primary human monocytes, antibody 1 nM [%] | percentage inhibition of CXCL-9 release, activated primary human monocytes, antibody 1 nM [%] | percentage inhibition of G-CSF release, activated primary human monocytes, antibody 1 nM [%] | percentage inhibition of GM-CSF release, activated primary human monocytes, antibody 1 nM [%] | percentage inhibition of IFN-γ release, activated primary human monocytes, antibody 1 nM [%] | percentage inhibition of IL-1α release, activated primary human monocytes, antibody 1 nM [%] | percentage inhibition of IL-1β release, activated primary human monocytes, antibody 1 nM [%] | percentage inhibition of IL-6 release, activated primary human monocytes, antibody 1 nM [%] | percentage inhibition of IL-10 release, activated primary human monocytes, antibody 1 nM [%] | Binder |
| --- | --- | --- | --- | --- | --- | --- | --- | --- | --- | --- |
| 38 | 56 | 73 | 88 | 89 | 57 | 107 | 96 | 57 | 83 | B1 |
| 26 | 66 | 68 | 86 | 89 | 53 | 110 | 97 | 55 | 73 | B2 |
| 48 | 65 | 72 | 89 | 91 | 60 | 112 | 96 | 58 | 77 | B3 |

same assay, conditions: not given

| percentage inhibition of IL-12p40 release, activated primary human monocytes, antibody 1 nM [%] | percentage inhibition of IL-15 release, activated primary human monocytes, antibody 1 nM [%] | percentage inhibition of IL-18 release, activated primary human monocytes, antibody 1 nM [%] | percentage inhibition of IL-27 release, activated primary human monocytes, antibody 1 nM [%] | percentage inhibition of TNF-α release, activated primary human monocytes, antibody 1 nM [%] | percentage inhibition of TNF-β release, activated primary human monocytes, antibody 1 nM [%] | Binder |
| --- | --- | --- | --- | --- | --- | --- |
| 96 | 69 | 78 | 57 | 93 | 63 | B1 |
| 95 | 92 | 81 | 74 | 94 | 60 | B2 |
| 96 | 86 | 85 | 88 | 94 | 62 | B3 |

biological target: T1, human TREM1 on cells; assay: cell-based or functional assay; remark: another data set of the same source

| pSYK inhibition Emax, hTREM1/hDAP-12 Flp-In 293 cells stimulated with PGN-EC/PGLYRP1 [%] | pSYK inhibition IC50, hTREM1/hDAP-12 Flp-In 293 cells stimulated with PGN-EC/PGLYRP1 [pM] | Binder |
| --- | --- | --- |
| 57 | 357 | B1 |
| 79 | 960 | B2 |
| 72 | 372 | B3 |

biological target: T2, human TREM1 (SPR of the humanised grafts, construct not stated) (human, UniProt Q9NP99 21-205, limits assumed); assay: SPR, human TREM1, IgG4P charge mutant

| Kd [nM] | Binder |
| --- | --- |
| 0.37 | B4 |
| 0.55 | B5 |
| 0.394 | B6 |

biological target: T2, human TREM1 (SPR of the humanised …); assay: SPR, human TREM1, humanised IgG4P graft

| Kd [nM] | Binder |
| --- | --- |
| 0.463 | B1 |
| 0.989 | B7 |
| 0.718 | B8 |
| 0.581 | B9 |
| 0.693 | B10 |
| 0.437 | B11 |
| 0.362 | B12 |
| 1.97 | B13 |
| 0.619 | B14 |
| 0.336 | B15 |
| 0.442 | B16 |
| 0.476 | B17 |

biological target: T2, human TREM1 (SPR of the humanised …); assay: SPR, human TREM1, IgG4P charge mutant, replicate values

| Kd | Binder |
| --- | --- |
| 0.559 nM and 0.616 nM | B18 |
| 0.532 nM and 0.633 nM | B19 |
| 0.578 nM and 0.659 nM | B20 |
| 0.624 nM and 0.672 nM | B21 |
